# Assay results: PubChem BioAssay AID1465 (SRMLSC, 2008)
# The other results are listed elsewhere or left out. Measured potencies and affinities stand elsewhere. Calls of active or inactive are those of the source.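 The calls were made as follows: active = fold induction of absorbance versus untreated yeast above a set limit, then at least 30% activation at any dose in follow-up; inconclusive = repeats straddling the limit, or above it without dose testing; inactive = fold induction below the set limit.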
# Assay: mitochondrial function rescue without frataxin homolog – Friedreich's ataxia, plus single-dose screen, dose response (AID 1465)
# Settings: S. cerevisiae Yfh1-off respiration, WST-1 reduction, 72 h; at 50 µM; stronger effect = higher value
row,Structure (SMILES),fold induction
1,COc1ccc2nc(NP(=O)(c3ccccc3)c3ccccc3)sc2c1,inactive: 1.09
2,COc1ccc(N/C(=N/P(=O)(N2CCOCC2)N2CCOCC2)N2CCOCC2)cc1,inactive: 1.04
3,C[As](=O)(O)c1cccc(C(=O)O)c1,inactive: 1.05
4,O=[As](O)(c1ccc(O)cc1)c1ccccc1O,inactive: 1.02
5,Cc1ccc2nc3c(c(C)c2c1)CC(C(Cl)Cl)S3 (stereo not drawn),inactive: 0.84
6,Cc1ccc(OP(=O)(Nc2ccc([N+](=O)[O-])cn2)Oc2ccc(C)cc2)cc1,inactive: 1.16
7,CC(C)c1ccc(OP(=O)(Nc2ccccn2)Oc2ccccc2F)cc1 (stereo not drawn),inactive: 0.99
8,ClCCSc1nnc(-c2cccnc2)o1,inactive: 1.04
9,O=[N+]([O-])c1cc([N+](=O)[O-])c(-c2ccn[nH]2)s1,inactive: 1.07
10,CCN(CC)C(=S)SC(NC=O)C(Cl)(Cl)Cl (stereo not drawn),inactive: 0.89
11,CC(C)NC(=O)NP(=O)(Oc1ccccc1)Oc1ccccc1,inactive: 1.06
12,O=C(O)c1ccccc1[As](=O)(O)O,inactive: 1.03
13,CC(=O)Nc1ccc([As](=O)(O)O)cc1,inactive: 1.06
14,O=P(Nc1nc2ccc(Cl)cc2s1)(c1ccccc1)c1ccccc1,inactive: 1.09
15,Cc1ccc(NP(=O)(Oc2ccccc2F)Oc2ccccc2F)nc1,inactive: 1.02
16,CN(C(=O)Cc1ccc(Cl)c(Cl)c1)[C@H]1CCCC[C@@H]1N1CCCC1,inactive: 1.03
17,CCOP(=O)(Nc1ccccc1)OCC,inactive: 1.05
18,Cc1cc(SC(NC(=O)c2ccc(F)cc2)C(Cl)(Cl)Cl)ncn1 (stereo not drawn),inactive: 0.9
19,CCN(N=Nc1nonc1N)c1nonc1N,inactive: 0.87
20,Nc1cccc2ccc([As](=O)(O)O)cc12,inactive: 1.07
21,NC(=O)c1cc([N+](=O)[O-])cc([N+](=O)[O-])c1N,inactive: 1.11
22,Cc1ccc(N/C(=N/P(=O)(N2CCOCC2)N2CCOCC2)N2CCOCC2)cc1,inactive: 0.98
23,Cc1ccc(OP(=O)(Nc2nccs2)Oc2ccc(C)cc2)cc1,inactive: 1.11
24,COc1ccccc1OP(=O)(Nc1ccc(C)cn1)Oc1ccccc1OC,inactive: 1.07
25,Clc1ccc(Cl)c(NC2=NCC(CBr)S2)c1 (stereo not drawn),inactive: 1.12
26,CC(C)CC(=O)NC(Sc1ccc(Cl)cc1)C(Cl)(Cl)Cl (stereo not drawn),inactive: 0.84
27,Cc1c2non([O-])c-2c(C)[n+](=O)[n+]1[O-],inactive: 1.07

row,Structure (SMILES),fold induction
1,O=C(NC(Sc1ccncn1)C(Cl)(Cl)Cl)c1ccccc1 (stereo not drawn),inactive: 1.18
2,Oc1ccccc1CNc1ccccn1,inactive: 1.07
3,COc1ccc(C2=NCC(CBr)S2)cc1 (stereo not drawn),inactive: 1.08
4,O=[N+]([O-])c1cccc2n[nH]nc12,inactive: 0.983
5,CC(=O)N1C2C3N(C(C)=O)C1C1N(C(C)=O)C(C(N1C(C)=O)N3C(C)=O)N2C(C)=O,inactive: 1.07
6,CCc1nc2c(n1)c1c(non1O)c1c2no[n+]1[O-],inactive: 1.1
7,O=[N+]([O-])c1cc([N+](=O)[O-])c(CCNc2ccccc2)c([N+](=O)[O-])c1,inactive: 1.08
8,Cc1ccc(NP(=O)(Oc2ccccc2)Oc2ccccc2)nc1,inactive: 1.06
9,C[N+]1=C2C=CC=CC=C2SC12C([N+](=O)[O-])=CC([N+](=O)[O-])=C[C-]2[N+](=O)[O-] (stereo not drawn),inactive: 1
10,Nc1ccc([As](=O)(O)c2ccc(N)cc2)cc1,inactive: 1
11,CCN(/C(=N/P(=O)(N1CCOCC1)N1CCOCC1)N1CCOCC1)c1ccc(OC)cc1,inactive: 1.08
12,CN(C)C(=O)OCCc1n(C)cc[n+]1C,inactive: 1.09
13,CC(C)=N/N=C(\N)N[N+](=O)[O-],inactive: 1.07
14,CC1CCN(C(=O)Oc2c(Cl)cc(Cl)c3cccnc23)CC1,inactive: 0.85
15,O=C(Nc1cc([As](=O)(O)O)ccc1O)c1ccccc1,inactive: 0.98
16,CC(C)(C)C(=O)NC(Sc1ccncn1)C(Cl)(Cl)Cl (stereo not drawn),inactive: 1.11
17,O=[N+]([O-])c1ncn(CCn2ncnc2[N+](=O)[O-])n1,inactive: 1.05
18,O=[N+]([O-])c1cccc(NC2=NCC(CBr)S2)c1 (stereo not drawn),inactive: 1.05
19,O=C(O)CNc1ccc([As](=O)(O)O)cc1,inactive: 1.03
20,O=P(Nc1ccccn1)(c1ccc(Br)cc1)c1ccc(Br)cc1,inactive: 1.07
21,C[C@H]1OP(=O)(Oc2ccccc2)[C@H](O)[C@H](O)[C@H]1N=[N+]=[N-] (stereo partly drawn),inactive: 1.09
22,O=P(Nc1nc2ccccc2s1)(c1ccccc1)c1ccccc1,inactive: 1.08
23,O=[N+]([O-])c1ncn(CCn2cnc([N+](=O)[O-])n2)n1,inactive: 1.1
24,CC(=O)NC(SC(=S)N(C)C)C(Cl)(Cl)Cl (stereo not drawn),inactive: 0.99
25,O=[As](O)(c1ccccc1)c1ccc(O)cc1,inactive: 1.01
26,Nc1ccc([As](=O)(O)c2ccc([N+](=O)[O-])cc2)cc1,inactive: 1.04
